This is a selection; strong and weak results do not stand in their true shares. The source made the active and inactive calls.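 Rule for the calls: active = activation at or above 40% of the spot to cytoplasm intensity ratio, with at least 20 cells analyzed; inconclusive = wells under 20 cells, flagged as cytotoxic or low count; inactive = the rest.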

Chains of the proteins cited; added tags and fusions are not shown.
UniProt P30989, whole entry: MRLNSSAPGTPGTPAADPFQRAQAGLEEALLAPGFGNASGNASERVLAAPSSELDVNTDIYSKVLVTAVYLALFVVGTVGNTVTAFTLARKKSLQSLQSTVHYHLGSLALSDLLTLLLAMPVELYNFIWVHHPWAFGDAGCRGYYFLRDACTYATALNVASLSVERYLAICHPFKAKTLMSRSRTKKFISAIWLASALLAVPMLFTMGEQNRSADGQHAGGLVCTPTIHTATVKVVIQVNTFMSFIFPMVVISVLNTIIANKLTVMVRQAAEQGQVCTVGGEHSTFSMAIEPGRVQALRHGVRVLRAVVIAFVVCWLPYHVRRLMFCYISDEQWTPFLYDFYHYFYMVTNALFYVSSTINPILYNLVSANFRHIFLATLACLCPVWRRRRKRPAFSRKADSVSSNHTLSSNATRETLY

This assay deals with Neurotensin receptor type 1 (Homo sapiens) (UniProt P30989). Nature of the assay: NTR1-driven beta-arrestin-GFP spot formation – imaging, U2OS cells, high content, primary screen (AID 493036) (AID 493036).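 Note: 0% = DMSO without peptide and 100% = 100 nM NTR1 peptide.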 The settings on record: agonist mode, at 20 µM, active compounds read high.
For the compound `COc1cc(C(=O)NCC2(N3CCOCC3)CCCCC2)ccc1OCC(C)C`, the activation was inactive: 0.4%.

Turning to `C[As](=O)(O)c1cccc(C(=O)O)c1`, the activation was inactive: -1.1%.

For the compound `O=[As](O)(c1ccc(O)cc1)c1ccccc1O`, the activation was inactive: 1%.

Turning to `O=[N+]([O-])c1cc([N+](=O)[O-])c(-c2ccn[nH]2)s1`, the activation is inactive: 1.6%.

As for `COc1ccc(OP(C)(=O)Nc2cccc(F)c2)cc1` (stereo not given), the activation is inactive: -0.7%.

With `CCN(CC)C(=S)SC(NC=O)C(Cl)(Cl)Cl` (stereo not given), the activation was inactive: 1.2%.

`O=C(OC1CN2CCC1CC2)c1cccc2[nH]cnc12` (stereo not given): the activation was inactive: 0.6%.

`COc1ccccc1OP(C)(=O)Nc1cc(Cl)ccc1C` (stereo not given): the activation was inactive: 1.6%.

Turning to `CC(C)NC(=O)NP(=O)(Oc1ccccc1)Oc1ccccc1`, the activation is inactive: -0.5%.

On to `Cc1cc(C)cc(OP(C)(N)=O)c1` (stereo not given), for which the activation is inactive: -2.3%.

As to `ClCCSc1nnc(-c2cccnc2)o1`, the activation was inactive: -0.4%.

`CCOC(=O)c1ccc(NP(C)(=O)Oc2ccccc2)cc1` (stereo not given): the activation was inactive: 1.5%.

Consider `Cc1ccc(NP(C)(=O)Oc2ccccc2)c(C)c1` (stereo not given), for which the activation was inactive: -2.5%.

As to `CC(C)c1ccc(OP(=O)(Nc2ccccn2)Oc2ccccc2F)cc1` (stereo not given), the activation was inactive: 3.8%.

`COc1ccccc1OP(C)(=O)Nc1ccc(C)cc1` (stereo not given): the activation is inactive: 0%.

For `Cc1cc(SC(NC(=O)c2ccccc2)C(Cl)(Cl)Cl)nc(C(C)C)n1` (stereo not given), the activation was inactive: -0.2%.

As for `CCCCOc1ccc(C(=O)NCC2(N3CCCCC3)CCCCC2)cc1OC`, the activation was inactive: -0.5%.

For `CCOC(=O)Nc1ccc([As](=O)(O)O)c(O)c1`, the activation is inactive: -0.6%.

On to `COc1ccccc1OP(C)(=O)Nc1ccccc1` (stereo not given), for which the activation is inactive: -0.9%.

In the case of `O=P(Nc1ccccn1)(c1cccc2ccccc12)c1cccc2ccccc12`, the activation is inactive: 2%.

On to `Cc1cc(SC(NC=O)C(Cl)(Cl)Cl)ncn1` (stereo not given), for which the activation is inactive: -1.1%.

With `CP(=O)(Nc1ccccc1Br)Oc1ccccc1` (stereo not given), the activation is inactive: -0.4%.

As to `CP(=S)(Nn1cnnc1)Oc1ccccc1` (stereo not given), the activation is inactive: -0.2%.

As for `CCOC(=O)Nc1cccc([As](=O)(O)O)c1`, the activation is inactive: 0%.

On to `O=C(Nc1ccncc1[N+](=O)[O-])c1ccc([N+](=O)[O-])cc1[N+](=O)[O-]`, for which the activation is inactive: -0.2%.

Take `Cc1cc(C)cc(OP(C)(=O)Nc2ccc(SC(F)(F)F)cc2)c1` (stereo not given): the activation is inactive: 11.2%.

Turning to `CCc1ccc(OP(C)(=O)N2CCN(c3ccc([N+](=O)[O-])cc3)CC2)cc1` (stereo not given), the activation is inactive: 0.7%.

As to `O=C(COc1ccccc1)OC1CN2CCC1CC2` (stereo not given), the activation is inactive: -2.5%.

Regarding `CP(=O)(NC(=O)Nc1ccccc1)Oc1ccccc1` (stereo not given), the activation is inactive: 0.8%.

On to `CP(=O)(Oc1ccccc1)OC(c1ccccc1)C(F)(F)F` (stereo not given), for which the activation is inactive: -0.9%.

Regarding `Cc1cccc(C)c1OP(C)(=O)Nc1ccc(SC(F)(F)F)cc1` (stereo not given), the activation was inactive: 29%.

In the case of `CP(=O)(Nc1ccc(SC(F)(F)F)cc1)Oc1ccc(Cl)cc1` (stereo not given), the activation is inactive: 2.4%.

For `COP1(=S)c2c(C)nn(CCC#N)c2N=C(c2ccc(F)cc2)N1C` (stereo not given), the activation is inactive: 0.8%.

`CCC(C)N(CC(C)C)C(=S)SC(NC(C)=O)C(Cl)(Cl)Cl` (stereo not given): the activation was inactive: -0.7%.

Consider `CP(=O)(Nc1ccccn1)Oc1ccc(Cl)cc1` (stereo not given), for which the activation was inactive: -1.1%.

Take `O=C(OC1CN2CCC1CC2)c1cccc([N+](=O)[O-])c1` (stereo not given): the activation is inactive: -1.2%.

`CCOP(C)(=S)SCC(=O)NC(C)C(=O)O` (stereo not given): the activation was inactive: 0.3%.

Turning to `CCOC(=O)c1ccc(NC(=O)C(C)(CCl)SC)cc1` (stereo not given), the activation was inactive: 1.2%.

On to `CCOC(=O)c1ccc(NP(C)(=O)Oc2ccc(OC)cc2)cc1` (stereo not given), for which the activation was inactive: 1%.

Consider `O=[N+]([O-])c1cc([N+](=O)[O-])c(O)c([N+](=O)[O-])c1.c1ccc(Oc2ccncc2)cc1`, for which the activation was inactive: -0.2%.

For the origin of these results see PubChem BioAssay AID493036 (Sanford-Burnham Center for Chemical Genomics, 2011).
